The results in this text go back to PubChem BioAssay AID827 (SRMLSC, 2007).

The list shows a part of the results, in another mix than the full data. Activity calls are given as the source filed them.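 Rule for the calls: active = viability at or below a set limit, 4 SD under the median of all tested compounds (cut at about 3.7% in these data); inactive = the rest.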

The nature of this experiment: viability loss in PTEN-deleted colon tumor cells – cell-based, HCT116, CellTiter-Glo, primary screen (AID 827).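 Note: PTEN knockout HCT116 line with beta catenin targeted HCT116 as companion control.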 To be noted: HCT116 PTEN-null viability, 60 h, at 10 µM, stronger effect = lower value. Background: In ATP-based viability assays light output follows the ATP content of the culture.
For orientation: viability means a read-out of living cells in per cent, often relative to untreated cells. Regarding `COc1ccc(NC2CCN(CCc3ccccc3)CC2)c(OC)c1`, the viability is inactive: 103%. With `O=C(OC1CN2CCC1CC2)C1c2ccccc2Oc2ccccc21` (stereo not drawn), the viability is inactive: 93%. Regarding `O=C(NCC1(N2CCOCC2)CCCCC1)c1cc2ccccc2o1`, the viability is inactive: 82.9%. To `N#CC1(Nc2ccccc2)CCN(CCc2ccccc2)CC1` belongs inactive: 98%; to `O=C(NCC1(N2CCOCC2)CCCCC1)c1cc(=O)[nH]c2ccccc12`, inactive: 92.9%; to `CN1CCN(CCOC(=O)C(O)(c2ccccc2)c2ccccc2)CC1`, inactive: 104%.

On to `c1ccc(CN2CCC(Nc3ccccc3)CC2)cc1`, for which the viability is inactive: 95.4%. Regarding `O=C(OC1CN2CCC1CC2)C1c2ccccc2C=Cc2ccccc21` (stereo not drawn), the viability was inactive: 65.2%. In the case of `N/C(=N\O)c1c(N)no[n+]1[O-]` it was inactive: 89.9%; in that of `CCOc1ncccc1C(=O)NCC1(N2CCOCC2)CCCCC1`, inactive: 97.5%; in that of `CCC(CO)(C(=O)OC1CN2CCC1CC2)c1ccccc1` (stereo not drawn), inactive: 109%. In the case of `Fc1ccccc1NC1CCN(Cc2ccccc2)CC1` it was inactive: 95.3%; in that of `CCN1CCC(Nc2cccc(F)c2)CC1`, inactive: 105%.
